From article PMC5544777, “Kinetics and thermodynamics of the protein-ligand interactions in the riboflavin kinase activity of the FAD synthetase from Corynebacterium ammoniagenes” (Scientific Reports, 2017)

Sequences of proteins named here, by UniProt entry; tags and fusion partners are left off. Residues count along the entry.
UniProt Q59263, 183-338 L183M: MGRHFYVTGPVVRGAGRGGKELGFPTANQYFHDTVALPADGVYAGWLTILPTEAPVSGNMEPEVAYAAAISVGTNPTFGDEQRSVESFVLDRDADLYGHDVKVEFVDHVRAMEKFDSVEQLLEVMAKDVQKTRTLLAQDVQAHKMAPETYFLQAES

Biological target: T1, RFK module of CaFADS (Corynebacterium ammoniagenes, UniProt Q59263, L183M)
T1 construct: a truncated CaFADS variant consisting in the isolated C-terminal RFK module; made in house; host or cells: E. coli BL21(DE3)
Test: Isothermal titration calorimetry of binary and ternary interactions
Format: binding
Protocol: Isothermal titration calorimetry (ITC) experiments were performed to elucidate the order in which ligands bind to the enzyme, as well as the binding inhibition effects from the thermodynamic point of view. Experiments were carried out in an AutoITC200 (MicroCal) that was thermostated at 25 °C. […] Titrations with FLV ligands of mixtures that contained the enzyme prebound with the ANP ligand were also carried out, as well as ANP titrations of mixtures of the enzyme saturated with FLV ligands. In these experiments, the titration was performed by stepwise injecting the titrating ligand. Up to 19 injections of 2 μL each were added to the calorimetric sample cell and mixed at a stirring speed of 1000 r.p.m. Ligands and protein were dissolved in 20 mM PIPES, pH 7.0, either in the presence or absence of 0.8 mM MgCl2, and degassed prior to titration. The association constant (K a), the enthalpy change (ΔH) and the binding stoichiometry (N) were obtained through a nonlinear least squares regression of the data using a homemade model for one or two independent binding sites, which was implemented in Origin 7.0 (OriginLab) as previously described, [20]. The entropic contribution (-TΔS), the Gibbs free energy (ΔG) and the dissociation constant (K d) were obtained through essential thermodynamic equations.
Experiments were performed in triplicate.

[1] = initial mixture RFK:FMN, 0.0 mM MgCl2
[2] = initial mixture RFK:FMN, 0.8 mM MgCl2
[3] = initial mixture RFK:RF, 0.0 mM MgCl2

Nc1ncnc2c1ncn2[C@@H]1O[C@H](COP(=O)(O)OP(=O)(O)OP(=O)(O)O)[C@@H](O)[C@H]1O [ATP]
Kd [1]: 0.5 µM
ΔG [1]: -8.6 kcal/mol
Kd [2]: 0.04 µM
ΔG [2]: -10.1 kcal/mol
Kd [3]: 50.4 µM
ΔG [3]: -5.9 kcal/mol
ΔG (initial mixture RFK, 0.0 mM MgCl2): -6.5 kcal/mol
Kd (initial mixture RFK, 0.0 mM MgCl2, 20 mM PIPES, pH 7.0, 25 °C): 16.3 µM
Kd (initial mixture RFK, 0.8 mM MgCl2, 20 mM PIPES, pH 7.0, 25 °C): 28.7 µM
